Results: ChEMBL document CHEMBL1131838, “8-acenaphthen-1-yl-1-phenyl-1,3,8-triaza-spiro[4.5]decan-4-one derivatives as orphanin FQ receptor agonists” (Bioorg Med Chem Lett, 1999)

Amino acid sequences for entries named in this document (tags omitted).
UniProt P35372, whole entry: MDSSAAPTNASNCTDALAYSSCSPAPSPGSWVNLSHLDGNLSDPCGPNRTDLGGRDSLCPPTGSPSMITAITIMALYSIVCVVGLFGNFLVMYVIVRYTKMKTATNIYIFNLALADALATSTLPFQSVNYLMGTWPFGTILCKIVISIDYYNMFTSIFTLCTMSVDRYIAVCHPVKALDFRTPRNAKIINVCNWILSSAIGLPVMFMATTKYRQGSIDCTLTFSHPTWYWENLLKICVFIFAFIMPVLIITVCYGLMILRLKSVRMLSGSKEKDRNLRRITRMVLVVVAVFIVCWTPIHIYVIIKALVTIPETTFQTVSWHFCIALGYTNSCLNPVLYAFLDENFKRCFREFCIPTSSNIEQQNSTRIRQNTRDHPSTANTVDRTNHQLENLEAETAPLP
UniProt P41143, whole entry: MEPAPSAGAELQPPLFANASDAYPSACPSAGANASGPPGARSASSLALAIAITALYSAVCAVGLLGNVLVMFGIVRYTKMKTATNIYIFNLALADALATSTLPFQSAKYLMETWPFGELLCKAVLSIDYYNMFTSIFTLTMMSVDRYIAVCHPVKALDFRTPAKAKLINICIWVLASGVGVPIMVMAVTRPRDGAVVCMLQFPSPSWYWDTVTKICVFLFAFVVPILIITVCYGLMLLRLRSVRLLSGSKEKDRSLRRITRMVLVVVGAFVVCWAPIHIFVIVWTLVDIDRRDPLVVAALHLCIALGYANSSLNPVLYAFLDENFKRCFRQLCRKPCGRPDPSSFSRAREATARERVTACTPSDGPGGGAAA
UniProt P41146, whole entry: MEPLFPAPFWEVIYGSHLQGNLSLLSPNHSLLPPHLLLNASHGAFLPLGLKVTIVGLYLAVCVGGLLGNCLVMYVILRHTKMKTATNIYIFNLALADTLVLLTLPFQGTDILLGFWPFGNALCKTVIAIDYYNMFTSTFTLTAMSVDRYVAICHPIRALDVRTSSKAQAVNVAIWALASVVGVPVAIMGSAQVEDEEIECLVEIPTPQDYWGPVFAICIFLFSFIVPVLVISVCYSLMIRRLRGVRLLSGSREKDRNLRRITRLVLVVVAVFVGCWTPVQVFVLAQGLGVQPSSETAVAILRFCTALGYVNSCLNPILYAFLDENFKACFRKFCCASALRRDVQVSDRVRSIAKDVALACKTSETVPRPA
UniProt P41145, whole entry: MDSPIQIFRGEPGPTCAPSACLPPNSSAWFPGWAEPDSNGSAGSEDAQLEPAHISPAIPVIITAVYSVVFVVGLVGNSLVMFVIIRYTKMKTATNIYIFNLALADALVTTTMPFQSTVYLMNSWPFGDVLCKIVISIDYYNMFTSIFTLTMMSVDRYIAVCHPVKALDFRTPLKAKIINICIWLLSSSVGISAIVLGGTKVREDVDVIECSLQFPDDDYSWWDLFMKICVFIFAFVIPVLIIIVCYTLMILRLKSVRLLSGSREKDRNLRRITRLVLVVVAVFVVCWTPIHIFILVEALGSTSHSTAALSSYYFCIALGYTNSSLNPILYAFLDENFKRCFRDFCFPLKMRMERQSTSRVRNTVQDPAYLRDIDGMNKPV

Key:
Mu-type opioid receptor = Mu-type opioid receptor (Homo sapiens, UniProt P35372); experiment: Displacement of [3H]naloxone from human mu opioid receptor
[1] = target: Delta-type opioid receptor (Homo sapiens, UniProt P41143); experiment: Displacement of [3H]-naloxone from Opioid receptor delta 1
Nociceptin receptor = Nociceptin receptor (Homo sapiens, UniProt P41146); experiment: Displacement of [3H]-orphanin FQ from human OrphaninFQ (hOFQ) receptor
[2] = target: Kappa-type opioid receptor (Homo sapiens, UniProt P41145); experiment: Displacement of [3H]naloxone from human kappa opioid receptor

Structure (SMILES) | Log Ki (Mu-type opioid receptor) | Log Ki [1] | Log Ki (Nociceptin receptor) | Log Ki [2]
Cc1ccc(N2CNC(=O)C23CCN(C2Cc4cccc5cccc2c45)CC3)cc1 (stereo not drawn) | -7.3 | < -6.3 | -8.3 | -6.7
O=C1NCN(c2ccccc2)C12CCN(C1Cc3cccc4cccc1c34)CC2 (stereo not drawn) | -8.2 | -6.6 |  | -7.6
O=C1NCN(c2ccccc2)C12CCN([C@@H]1Cc3cccc4cccc1c34)CC2 | -8.4 | -7 |  | -7.7
O=C1NCN(c2ccccc2)C12CCN([C@H]1Cc3cccc4cccc1c34)CC2 | -7.9 | < -6.3 |  | -7.6
